Data on 1 molecule can be found in patent publication US20070232520A1 (YEDA RESEARCH AND DEVELOPMENT, published 2007).

Assay [1] concerns the target T1, full-length 55.11 protein (55.11-full) (human, UniProt Q13200 11-899, limits assumed).
T1 construct: Expressed in transfected HeLa cells and labelled with [35S]Met and [35S]Cys
T1 sequence: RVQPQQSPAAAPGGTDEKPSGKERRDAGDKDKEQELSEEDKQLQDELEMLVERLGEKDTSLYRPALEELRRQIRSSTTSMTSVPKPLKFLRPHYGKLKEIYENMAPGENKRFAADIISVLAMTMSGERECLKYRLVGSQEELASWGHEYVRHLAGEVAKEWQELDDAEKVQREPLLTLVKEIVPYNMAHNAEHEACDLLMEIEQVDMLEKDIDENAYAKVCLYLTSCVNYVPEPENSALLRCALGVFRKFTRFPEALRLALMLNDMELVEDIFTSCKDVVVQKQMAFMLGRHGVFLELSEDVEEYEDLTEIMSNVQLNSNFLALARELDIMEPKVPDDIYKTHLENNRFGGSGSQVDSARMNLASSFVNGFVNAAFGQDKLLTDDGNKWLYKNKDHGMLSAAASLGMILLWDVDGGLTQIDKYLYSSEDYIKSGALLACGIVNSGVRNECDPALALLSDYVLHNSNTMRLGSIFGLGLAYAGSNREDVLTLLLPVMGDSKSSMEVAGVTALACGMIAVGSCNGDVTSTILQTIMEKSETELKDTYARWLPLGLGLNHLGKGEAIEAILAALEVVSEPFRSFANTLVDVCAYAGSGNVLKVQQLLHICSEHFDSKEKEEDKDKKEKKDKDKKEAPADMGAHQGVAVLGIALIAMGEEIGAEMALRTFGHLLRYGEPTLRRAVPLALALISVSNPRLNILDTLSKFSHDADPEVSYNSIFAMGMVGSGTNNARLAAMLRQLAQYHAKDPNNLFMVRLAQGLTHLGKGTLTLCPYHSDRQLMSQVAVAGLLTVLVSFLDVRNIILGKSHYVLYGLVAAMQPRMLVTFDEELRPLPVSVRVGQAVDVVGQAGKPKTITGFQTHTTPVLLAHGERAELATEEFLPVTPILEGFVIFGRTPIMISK
Kind of assay: in vitro pull-down: 35S-labelled protein from HeLa lysate on GST on glutathione-agarose beads, SDS-PAGE, autoradiography.

Assay [2] deals with T2, FLAG-55.11 (residues 309-900 of 55.11 fused at the N terminus with the FLAG octapeptide) (human, UniProt Q13200 318-899).
T2 construct: Expressed in transfected HeLa cells and labelled with [35S]Met and [35S]Cys; not shown: FLAG octapeptide (Eastman Kodak)
T2 sequence: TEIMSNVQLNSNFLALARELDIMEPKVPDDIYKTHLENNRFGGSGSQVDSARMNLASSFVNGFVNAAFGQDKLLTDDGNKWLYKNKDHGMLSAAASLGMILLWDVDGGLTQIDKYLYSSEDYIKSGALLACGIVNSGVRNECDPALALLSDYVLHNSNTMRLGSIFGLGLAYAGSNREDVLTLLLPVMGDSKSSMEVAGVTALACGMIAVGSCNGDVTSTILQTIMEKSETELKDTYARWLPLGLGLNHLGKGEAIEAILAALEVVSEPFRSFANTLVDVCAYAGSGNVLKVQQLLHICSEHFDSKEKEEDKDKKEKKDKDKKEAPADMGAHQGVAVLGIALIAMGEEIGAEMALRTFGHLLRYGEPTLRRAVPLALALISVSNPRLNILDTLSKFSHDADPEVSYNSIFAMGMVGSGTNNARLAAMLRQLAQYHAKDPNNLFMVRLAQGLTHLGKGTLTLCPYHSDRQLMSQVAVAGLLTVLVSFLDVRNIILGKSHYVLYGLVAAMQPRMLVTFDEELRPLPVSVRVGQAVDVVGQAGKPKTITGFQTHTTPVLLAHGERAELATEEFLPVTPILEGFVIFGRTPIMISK
Described as above.

B1: GST alone (control) (other, UniProt P08515 1-218, looked up)
chain: MSPILGYWKIKGLVQPTRLLLEYLEEKYEEHLYERDEGDKWRNKKFELGLEFPNLPYYIDGDVKLTQSMAIIRYIADKHNMLGGCPKERAEISMLEGAVLDIRYGVSRIAYSKDFETLKVDFLSKLPEMLKMFEDRLCHKTYLNGDHVTHPDFMLYDALDVVLYMDPMCLDAFPKLVCFKKRIEAIPQIDKYLKSSKYIAWPLQGWQATFGGGDHPPK
notes: Control on glutathione-agarose beads
As to B1, the binding result in assay [1] and in assay [2] was “no binding” in each case.
